# Values quoted from earlier work as cited in patent US8084059B2, “Antidepressant dosage form” (ALZA Corporation, priority 1993, dated 2011).
# Tested on: neuronal uptake of serotonin
# Details: in vitro
compound,measurement,value
COc1ccc(C(CN(C)C)C2(O)CCCCC2)cc1 (stereo not shown) [1-[2-(dimethylamino)-1-(4-methoxyphenyl)ethyl]cyclohexanol],neuronal uptake of serotonin,prevents
